These results are taken from patent EP4825398A1, “PHARMACEUTICAL COMPOSITION CONTAINING PRMT5 INHIBITOR AND CDK4/6 INHIBITOR” (dated 2026).

Assay [1] relates to LU99 MTAP (-/-) deleted cells. Nature of the assay: Single-agent test, CTG cell viability, 144 h.
Assay [2] deals with LU99 MTAP (-/-) deleted cells. Kind of assay: Combination test with Abemaciclib, CTG cell viability, 144 h; CI by Calcusyn. The conditions noted are these: Abemaciclib 0.0 nM.

In general, IC20 refers to the concentration at which the effect reaches the 20% level. Lower therefore signals greater potency. The term IC50 denotes the midpoint of a concentration-inhibition curve.

On to `CN(C(=O)c1ccc2nc(N)c3cncn3c2c1)[C@@H]1COc2cc(C(F)(F)F)ccc21`, for which, in assay [1], the IC20 was 3.41 nM, the IC50 came to 15.1 nM and the “Max Inh%” value is listed as 83.2%.

Compound `C[C@H](c1ccc(C(F)(F)F)cn1)N(C(=O)c1cc2c(cc1F)nc(N)c1cncn12)C1CC1` had a concentration for an effect of 20% (IC20) in assay [1] of 3.64 nM. Further, in assay [1], the IC50 was 13.4 nM. Further, in assay [1], the “Max Inh%” value is 82.4%. The “Inhibition Rate (%)” value in assay [2] (Compound C 0.49 nM) is recorded as 3.6%; in assay [2] (Compound C 1.95 nM), 5.6%; in assay [2] (Compound C 7.81 nM) it was 25.7%; in assay [2] (Compound C 31.3 nM) it was 55.3%; in assay [2] (Compound C 125 nM) it was 73.4%; in assay [2] (Compound C 500 nM), 79.2%.
